Measurements taken from ChEMBL document CHEMBL1142779, “Synthesis and in vitro pharmacological studies of new C(2) modified salvinorin A analogues” (2005).

The chains behind the UniProt entries cited, without tags or fusion partners. Where a name states a change or a piece, a line headed by the entry shows the natural chain unless it says otherwise.
UniProt P41145: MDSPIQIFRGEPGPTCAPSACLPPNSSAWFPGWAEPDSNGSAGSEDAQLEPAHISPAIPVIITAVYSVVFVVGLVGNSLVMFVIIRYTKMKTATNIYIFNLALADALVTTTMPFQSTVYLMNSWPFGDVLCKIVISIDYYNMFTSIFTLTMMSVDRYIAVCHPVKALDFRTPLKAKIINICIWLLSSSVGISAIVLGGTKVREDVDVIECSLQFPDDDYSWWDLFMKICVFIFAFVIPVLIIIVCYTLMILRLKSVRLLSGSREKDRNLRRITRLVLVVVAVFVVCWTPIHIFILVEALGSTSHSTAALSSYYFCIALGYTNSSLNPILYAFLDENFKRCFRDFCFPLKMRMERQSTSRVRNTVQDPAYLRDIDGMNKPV

Target: Kappa-type opioid receptor (Homo sapiens, UniProt P41145)
Test: Agonistic activity against human k-opioid receptor using [3H]diprenorphine

Structure (SMILES)	Ki
CCC(=O)O[C@H]1C[C@@H](C(=O)OC)[C@]2(C)CC[C@H]3C(=O)O[C@H](c4ccoc4)C[C@]3(C)C2C1=O (stereo partly specified)	> 1 µM
COC(=O)[C@@H]1C[C@H](OC(=O)c2cccc(F)c2)C(=O)C2[C@@]1(C)CC[C@H]1C(=O)O[C@H](c3ccoc3)C[C@]21C (stereo partly specified)	> 1 µM
COC(=O)C1=CC(=O)C=C2[C@@]1(C)CC[C@H]1C(=O)O[C@H](c3ccoc3)C[C@]21C	> 1 µM
COC(=O)[C@@H]1C[C@H](OC(=O)C2CC2)C(=O)C2[C@@]1(C)CC[C@H]1C(=O)O[C@H](c3ccoc3)C[C@]21C (stereo partly specified)	> 1 µM
COC(=O)O[C@H]1C[C@@H](C(=O)OC)[C@]2(C)CC[C@H]3C(=O)O[C@H](c4ccoc4)C[C@]3(C)C2C1=O (stereo partly specified)	> 1 µM
COC(=O)[C@@H]1C[C@H](OC(=O)C(F)(F)F)C(=O)C2[C@@]1(C)CC[C@H]1C(=O)O[C@H](c3ccoc3)C[C@]21C (stereo partly specified)	> 1 µM
